From publication PMC5650409 (Oncotarget, 2017) come the findings set out here.

Data set [1] deals with SK-BR-3 tumor-bearing mice. The settings on record: mouse, in vivo. Here is the method:
(§1) All animal experiments were performed in adherence with the Peking Union Medical College Hospital (PUMCH) guidelines for the use of laboratory animals and were approved by PUMCH Clinical Center Animal Care and Use Committee. The pancreatic cancer tumor-bearing models were generated by subcutaneous injection of 5 × 10^6 human T3M4 pancreatic cancer cells (kindly supplied by Prof. Taiping Zhang from the Department of General Surgery, Peking Union Medical College Hospital) and SK-BR-3 breast cancer cells (kindly supplied by Prof. Wei Ge from Department of Immunology, Institute of Basic Medical Sciences), into the right shoulder of female athymic nude mice (Laboratory Animal Center of PUMCH). Tumor sizes were monitored with a vernier caliper. When the tumor reached approximately 3-5 mm in diameter, T3M4 tumor-bearing mice were intramuscularly injected with 0.2 mL turpentine into the left hind leg muscle. After 72 h, those tumor-bearing mice with a visible mass in left thigh muscle, were selected and used as models with aseptic inflammation.
(§2) In vivo PET imaging was performed using a small-animal PET scanner Inveon (Siemens Medical systems, USA). […] Mice were anesthetized with isoflurane and placed on a heated pad (to provide the animal with warmth throughout the scanning). PET images were acquired at 30, 60, 90 and 120 min post-injection. After the acquisition, region of interests (ROIs), including tumor, muscle, brain and kidney were drawn over major organs on decay-corrected whole-body coronal images using Inveon Research Workplace 4.1 software. Radioactivity concentration of organs was obtained from the mean pixel values within the multiple ROI volume, and converted into MBq/mL using a conversion factor. Assuming the density of tissue was 1 g/cm^3, the ROIs were converted to MBq/g and then divided by the administered activity, to obtain an imaging ROI-derived %ID/g.

The test system of data set [2] is T3M4 tumor-bearing mice. The note with it: mouse, in vivo. Here is the method: as §1, §2

In the case of ^18F-FDG [reference compound], in data set [1], the “radioactivity uptake in SK-BR-3 tumor” value is reported as “high”, the “uptake ratio of tumor-to-blood” value was 0.54 ± 0.03, the “uptake ratio of tumor-to-liver” value was found to be 2.97 ± 0.06 and the “uptake ratio of tumor-to-muscle” value was 2.81 ± 0.06. For the same substance, in data set [2], the ratio of tumor-to-blood is 0.28 ± 0.02, the ratio of tumor-to-inflammation was found to be 0.85 ± 0.09, the ratio of tumor-to-liver is reported as 2.83 ± 0.10 and the ratio of tumor-to-muscle is on record as 2.95 ± 0.15.
